Measured values reported in ChEMBL document CHEMBL1125722 (J Med Chem, 1991).

Chains of the proteins cited; added tags and fusions are not shown.
UniProt P61169, whole entry: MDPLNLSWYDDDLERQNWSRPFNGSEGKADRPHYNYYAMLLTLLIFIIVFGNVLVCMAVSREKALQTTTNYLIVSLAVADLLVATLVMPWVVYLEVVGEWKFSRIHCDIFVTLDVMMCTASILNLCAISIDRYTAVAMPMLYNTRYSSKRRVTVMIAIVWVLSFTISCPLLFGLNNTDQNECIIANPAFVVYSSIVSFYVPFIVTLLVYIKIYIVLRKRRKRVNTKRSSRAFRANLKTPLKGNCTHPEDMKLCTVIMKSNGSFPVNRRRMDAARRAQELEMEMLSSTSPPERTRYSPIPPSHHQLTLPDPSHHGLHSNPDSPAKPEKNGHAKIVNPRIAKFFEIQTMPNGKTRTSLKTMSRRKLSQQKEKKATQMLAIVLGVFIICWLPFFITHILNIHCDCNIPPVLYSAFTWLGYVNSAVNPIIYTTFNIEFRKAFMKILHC

Molecular target: D(2) dopamine receptor (Rattus norvegicus, UniProt P61169)
Assay: Neuroleptic activity in terms of [3H]spiroperidol binding in rat striatal membrane to Dopamine receptor D2
Format: cell membranes, Striatum

CN1CCc2cccc3c2[C@H]1Cc1ccc(O)c(O)c1-3 [APOMORPHINE]
IC50: 302 nM
